The target in this experiment is T1, hDAT (Homo sapiens, UniProt Q01959).
T1 construct: The full-length hDAT cDNA was sub-cloned into pKYLX80 vector; expressed in transfected cells; host or cells: Lobelia cardinalis hairy roots (A. rhizogenes R1000, modified pCambia1301, 35S promoter)
Kind of experiment: [3H]-GBR12935 saturation binding to transgenic hDAT hairy root cultures.

The chains behind the UniProt entries cited, without tags or fusion partners.
UniProt Q01959, whole entry: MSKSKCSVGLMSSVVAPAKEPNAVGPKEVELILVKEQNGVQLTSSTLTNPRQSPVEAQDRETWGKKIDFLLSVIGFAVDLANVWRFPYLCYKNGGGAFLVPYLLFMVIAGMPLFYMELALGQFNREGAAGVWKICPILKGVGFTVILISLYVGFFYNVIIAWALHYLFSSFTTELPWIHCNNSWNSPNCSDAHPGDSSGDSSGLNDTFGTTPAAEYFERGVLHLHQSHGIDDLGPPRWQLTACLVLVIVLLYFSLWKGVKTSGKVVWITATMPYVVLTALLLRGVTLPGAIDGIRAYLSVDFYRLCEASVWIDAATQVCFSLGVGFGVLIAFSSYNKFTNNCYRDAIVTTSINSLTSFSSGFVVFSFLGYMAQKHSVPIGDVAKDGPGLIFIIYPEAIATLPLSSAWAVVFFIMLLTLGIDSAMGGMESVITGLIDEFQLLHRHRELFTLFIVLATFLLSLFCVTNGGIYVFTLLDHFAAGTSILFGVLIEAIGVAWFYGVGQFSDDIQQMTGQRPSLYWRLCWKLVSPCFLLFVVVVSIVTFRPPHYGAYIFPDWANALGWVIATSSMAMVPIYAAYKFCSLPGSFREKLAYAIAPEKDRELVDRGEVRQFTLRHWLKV

As for `c1ccc(CCCN2CCN(CCOC(c3ccccc3)c3ccccc3)CC2)cc1` [[^3H]-GBR12935], the Bmax worked out at 1.04 ± 0.9 pmol/mg membrane protein.
